From patent publication US20060040868A1, “Methods for treating premature infants” (priority 2004, published 2006)

Test system: M-17 neuroblastoma cells
Assay: growth of cultured M-17 neuroblastoma cells
Format: cell-based
Settings: unpublished observations (Bowen et al.)
Source text: Evidence supporting a role for FSH, LH, and hCG in driving cell proliferation includes the following: 1) FSH is associated with granulosa cell proliferation (El-Heffiawy T, Zeleznik A J. Synergism between FSH and activin in the regulation of proliferating cell nuclear antigen (PCNA) and cyclin D2 expression in rat granulosa cells. Endocrinology 142:4357-4362, 2001); 2) hCG directly promotes the proliferation of myometrial and leiomyomal cells (Horiuchi A et al. HCG promotes proliferation of uterine leiomyomal cells more strongly than that of myometrial smooth muscle cells in vitro. […] Gynecology and Endocrinology 13:75-81, 1999); 4) one study also has shown that LH stimulates the growth of chondrocytes (cartilage cells) in rabbit epiphyseal growth plates (Webber R J, Sokoloff L. In vitro culture of rabbit growth plate chondrocytes: 1. […] The mechanism by which these hormones exert their mitogenicity is likely via signaling through the insulin/IGF pathway that converges on FKHR (human homolog of daf-16), phosphorylation of which stimulates mitosis (Richards, J S, Sharma, S C, Falender, A E, Lo, Y H. Expression of FKHR, FKHRL1, and AFX genes in the rodent ovary: evidence for regulation by IGF-I, estrogen, and the gonadotropins. Molecular Endocrinology 16, 580-599, 2002). […]

Substance: LH: pituitary gonadotropin glycoprotein hormone, heterodimer of a common α-subunit with a unique β-subunit
- growth of cultured M-17 neuroblastoma cells: induced
